Results as given in patent publication US20240247042A1, “GLUCAGON LIKE PEPTIDE COMPOUNDS” (Novartis AG, priority 2021, published 2024).

Legend:
Mouse PK (DIO mice) = settings: s.c.
[1] = Cynomolgous monkey PK (obese monkeys); settings: single s.c., 0.004 mg/kg

semaglutide
T1/2 (Mouse PK (DIO mice)): 8.4 ± 2.2 h | Tmax (Mouse PK (DIO mice)): 5.04 ± 1.7 h | Cmax [1]: 7.11 ± 2.2 nM | T1/2 [1]: 67.2 ± 4.8 h | Tmax [1]: 24 ± 0 h
